Among the data in ChEMBL document CHEMBL3271947, “Improved delivery through biological membranes. 3. Delivery of N-methylpyridinium-2-carbaldoxime chloride through the blood-brain barrier in its dihydropyridine pro-drug form” (1976) are Activity, Drug metabolism and Drug uptake values, retold here.

In data set [1] the test system is Mus musculus. The data set can be described thus: Reactivation of AChE in ICR mouse brain at 50 mg/kg, iv administered 15 mins post DFP challenge measured after 90 mins by Ellman method relative to control. Conditions: strain ICR.
Data set [2] has as its system Mus musculus. The data set can be described thus: Reactivation of AChE in ICR mouse brain at 20 mg/kg, iv administered 15 mins post DFP challenge measured after 90 mins by Ellman method relative to control. Conditions: strain ICR.
Data set [3] deals with Mus musculus. The data set can be described thus: Reactivation of AChE in ICR mouse brain at 40 mg/kg, iv administered 15 mins post DFP challenge measured after 90 mins by Ellman method relative to control. The conditions noted are these: strain ICR.
Data set [4] relates to Mus musculus. The data set can be described thus: Reactivation of AChE in ICR mouse brain at 30 mg/kg, iv administered 15 mins post DFP challenge measured after 90 mins by Ellman method relative to control. Conditions: strain ICR.
Data set [5] relates to Brain. The data set can be described thus: Prodrug conversion in ICR white mouse brain homogenates assessed as 2-PAM at 5 mg/kg, iv after 15 mins by radiochromatography. The conditions noted are these: in vivo, 0.25 h, strain ICR.
Data set [6] has as its system Brain. The data set can be described thus: Drug uptake in ICR white mouse whole brain at 5 mg/kg, iv after 15 mins by liquid scintillation counting analysis. Conditions: in vivo, 0.25 h, strain ICR.

Turning to `CN1CC=CC=C1/C=N/O.Cl`, the Activity in the data set with Mus musculus [1] amounted to 69%; in the data set with Mus musculus [2] it was 18%; with Mus musculus [3], 41%; in the data set on Mus musculus [4], 21.6%. Moreover, the Drug metabolism entry in the data set with Brain [5] is reported as “metabolite_detected”. Further, in the data set on Brain [6], the Drug uptake came out at 5.03 mg%.

As for `C[n+]1ccccc1/C=N/O.[Cl-]`, the Activity worked out at 12.1% with Mus musculus [1], 5.93% with Mus musculus [3] and 0% with Mus musculus [4].

In the data set with Brain [6], `C[n+]1ccccc1/C=N/O.[I-]` came in with a Drug uptake of 0.398 mg%.
